Data from US5453488A, “Amino-substituted heterocycles as renin inhibitors” (Warner-Lambert Company, priority 1993, dated 1995).

The chains behind the UniProt entries cited, without tags or fusion partners. Residues count along the entry.
UniProt P00797, 67-406 limits assumed: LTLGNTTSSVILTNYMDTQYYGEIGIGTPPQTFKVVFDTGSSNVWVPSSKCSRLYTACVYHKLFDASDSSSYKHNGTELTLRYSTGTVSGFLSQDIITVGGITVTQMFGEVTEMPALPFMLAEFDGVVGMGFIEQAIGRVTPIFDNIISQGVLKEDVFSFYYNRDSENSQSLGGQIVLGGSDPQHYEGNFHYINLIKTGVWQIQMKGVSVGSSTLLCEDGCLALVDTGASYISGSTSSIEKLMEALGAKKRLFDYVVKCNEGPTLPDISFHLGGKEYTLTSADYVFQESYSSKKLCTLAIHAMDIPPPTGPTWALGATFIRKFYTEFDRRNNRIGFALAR

Columns and labels:
renin = renin (Homo sapiens, UniProt P00797); assay: In vitro renin inhibition, radioimmunoassay for angiotensin I; assay type: biochemical; conditions: renin with angiotensinogen, 2 hours at 37° C.
chymotrypsin = assay: In vitro chymotrypsin stability
[1] = tested on: unanesthetized, sodium-deplete, normotensive Rhesus or Cynomolgus monkeys; assay: In vivo blood pressure lowering in conscious sodium-deplete monkeys

## CC(C)C[C@H](O)[C@H](O)[C@H](CC1CCCCC1)NC(=O)C(NC(=O)[C@H](Cc1ccccc1)NS(=O)(=O)N1CCOCC1)c1csc(N)n1 (stereo partly shown)
renin
  IC50: 0.58 nM

## CC(C)C[C@H](O)[C@H](O)[C@H](CC1CCCCC1)NC(=O)[C@H](CCc1csc(N)n1)NC(=O)[C@H](Cc1ccccc1)NS(=O)(=O)N1CCOCC1
renin
  IC50: 15.3 nM

## Nc1nc(C[C@H](NC(=O)[C@H](Cc2ccccc2)NS(=O)(=O)N2CCOCC2)C(=O)N[C@@H](CC2CCCCC2)[C@@H](O)CC(=O)NCCN(CCO)CCO)cs1
renin
  IC50: 3.6 nM

## O=C(Nc1nc(C[C@H](NC(=O)[C@H](Cc2ccccc2)NS(=O)(=O)N2CCOCC2)C(=O)N[C@@H](CC2CCCCC2)C(O)C(F)(F)C(=O)NCCN2CCOCC2)cs1)OCc1ccccc1 (stereo partly shown)
renin
  IC50: 164 nM

## CC(C)C[C@H](O)[C@H](O)[C@H](CC1CCCCC1)NC(=O)[C@H](Cc1csc(N)n1)NC(=O)[C@H](Cc1ccccc1)NS(=O)(=O)N1CCOCC1 (single isomer, unassigned)
chymotrypsin
  Percent Parent Remaining (3 hrs) Buffer + chymotrypsin: 100%
  Percent Parent Remaining (3 hrs) Buffer only: 100%
[1]; PO 10 mg/kg
  mm Hg drop in mean B.P. at 1 hr: 14 mm Hg
  mm Hg drop in mean B.P. at 2 hr: 20 mm Hg
  mm Hg drop in mean B.P. at 4 hr: 15 mm Hg
  mm Hg drop in mean B.P. at 6 hr: 12 mm Hg
  mm Hg drop in mean B.P. Max: 23 mm Hg
[1]; PO 30 mg/kg
  mm Hg drop in mean B.P. at 1 hr: 30 mm Hg
  mm Hg drop in mean B.P. at 2 hr: 34 mm Hg
  mm Hg drop in mean B.P. at 4 hr: 29 mm Hg
  mm Hg drop in mean B.P. at 6 hr: 29 mm Hg
  mm Hg drop in mean B.P. Max: 38 mm Hg

## COc1ccc(C[C@H](NS(=O)(=O)N2CCOCC2)C(=O)NC(Cc2csc(N)n2)C(=O)N[C@@H](CC2CCCCC2)[C@@H](O)[C@@H](O)CC(C)C)cc1 (single isomer, unassigned)
renin
  IC50: 0.34 nM
chymotrypsin
  Percent Parent Remaining (3 hrs) Buffer + chymotrypsin: 100%
  Percent Parent Remaining (3 hrs) Buffer only: 100%
